From ChEMBL document CHEMBL5380856, “Development of Orally Bioavailable Amidobenzimidazole Analogues Targeting Stimulator of Interferon Gene (STING) Receptor” (J Med Chem, 2023)
Calls of active or inactive are those of the source.

Amino acid sequences for entries named in this document (tags omitted).
UniProt Q86WV6, whole entry, looked up, stated change not applied: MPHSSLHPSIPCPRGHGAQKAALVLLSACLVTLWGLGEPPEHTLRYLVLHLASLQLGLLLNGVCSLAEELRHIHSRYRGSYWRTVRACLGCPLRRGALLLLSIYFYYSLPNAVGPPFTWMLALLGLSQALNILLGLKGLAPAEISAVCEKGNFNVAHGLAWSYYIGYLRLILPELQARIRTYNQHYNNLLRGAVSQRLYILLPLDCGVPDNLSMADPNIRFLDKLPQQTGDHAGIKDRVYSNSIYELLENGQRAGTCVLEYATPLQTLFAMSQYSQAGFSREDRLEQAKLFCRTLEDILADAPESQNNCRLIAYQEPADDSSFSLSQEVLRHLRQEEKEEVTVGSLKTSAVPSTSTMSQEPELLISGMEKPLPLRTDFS

Key:
[1] = molecular target: T1, Stimulator of interferon genes protein (Homo sapiens, UniProt Q86WV6); assay: Activation of STING signaling pathway in human THP-1 cells assessed as increase in IFN-beta mRNA level at 10 uM measured after 5 hrs by qRT-PCR analysis; type: cell-based; conditions: filed as activator
[2] = molecular target: T1, Stimulator of interferon genes protein; assay: Activation of STING signaling pathway in human THP-1 cells assessed as increase in CXCL10 mRNA level at 10 uM measured after 24 hrs by qRT-PCR analysis; type: cell-based; conditions: filed as activator
[3] = molecular target: T1, Stimulator of interferon genes protein; assay: Activation of STING signaling pathway in human THP-1 cells assessed as increase in IFN-beta mRNA level incubated for 3 hrs by qRT-PCR analysis; type: cell-based; conditions: filed as activator, dose 2-8 µM
[4] = molecular target: T1, Stimulator of interferon genes protein; assay: Activation of STING signaling pathway in human THP-1 cells assessed as increase in CXCL10 mRNA level incubated for 24 hrs by qRT-PCR analysis; type: cell-based; conditions: filed as activator, dose 2-8 µM
[5] = molecular target: T2, Stimulator of interferon genes protein (Mus musculus) (UniProt Q3TBT3); assay: Activation of STING signalling pathway in mouse RAW264.7 cells assessed as increase in IFN-beta mRNA level at 50 uM incubated for 12 hrs by qRT-PCR analysis; type: cell-based; conditions: filed as activator
T2 sequence (whole entry): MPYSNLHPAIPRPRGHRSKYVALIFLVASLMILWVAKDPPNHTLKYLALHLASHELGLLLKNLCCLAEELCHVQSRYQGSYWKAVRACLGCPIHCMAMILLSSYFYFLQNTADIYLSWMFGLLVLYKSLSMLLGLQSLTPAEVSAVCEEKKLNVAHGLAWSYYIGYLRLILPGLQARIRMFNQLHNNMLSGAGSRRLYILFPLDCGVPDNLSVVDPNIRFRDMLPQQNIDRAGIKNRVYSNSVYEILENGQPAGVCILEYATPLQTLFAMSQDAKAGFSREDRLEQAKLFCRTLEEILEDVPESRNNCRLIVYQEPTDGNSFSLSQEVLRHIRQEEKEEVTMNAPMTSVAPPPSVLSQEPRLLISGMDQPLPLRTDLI

[6] = molecular target: T2, Stimulator of interferon genes protein (Mus musculus); assay: Activation of STING signalling pathway in mouse RAW264.7 cells assessed as increase in CXCL10 mRNA level at 50 uM incubated for 24 hrs by qRT-PCR analysis; type: cell-based; conditions: filed as activator
[7] = molecular target: T1, Stimulator of interferon genes protein; assay: Activation of STING signalling pathway in human THP-1 cells assessed as increase in STING phosphorylation at 10 uM measured after 3 hrs by Western blot analysis; type: cell-based; conditions: filed as activator
[8] = molecular target: T1, Stimulator of interferon genes protein; assay: Activation of STING signalling pathway in human THP-1 cells assessed as increase in IRF3 phosphorylation at 10 uM measured after 3 hrs by Western blot analysis; type: cell-based; conditions: filed as activator
[9] = molecular target: T1, Stimulator of interferon genes protein; assay: Activation of STING signalling pathway in human THP-1 cells assessed as increase in TBK1 phosphorylation at 10 uM measured after 3 hrs by Western blot analysis; type: cell-based; conditions: filed as activator
[10] = molecular target: T1, Stimulator of interferon genes protein; assay: Activation of STING signalling pathway in human THP-1 cells assessed as increase in STING phosphorylation measured after 3 hrs by Western blot analysis; type: cell-based; conditions: filed as activator, dose 2-8 µM
[11] = molecular target: T1, Stimulator of interferon genes protein; assay: Activation of STING signalling pathway in human THP-1 cells assessed as increase in IRF3 phosphorylation measured after 3 hrs by Western blot analysis; type: cell-based; conditions: filed as activator, dose 2-8 µM
[12] = molecular target: T1, Stimulator of interferon genes protein; assay: Activation of STING signalling pathway in human THP-1 cells assessed as increase in TBK1 phosphorylation measured after 3 hrs by Western blot analysis; type: cell-based; conditions: filed as activator, dose 2-8 µM
CT26 [13] = assay: Antitumor activity against mouse CT26 cells implanted in BALB/c mouse assessed as suppression of tumor growth at 0.25 mg/kg, iv administered on days 1,3, 5 and 8; type: functional, organism-based; conditions: time 8.0 day
CT26 [14] = assay: Antitumor activity against mouse CT26 cells implanted in BALB/c mouse assessed as suppression of tumor growth at 1 mg/kg, ip administered on days 1,3, 5 and 8; type: functional, organism-based; conditions: time 8.0 day
CT26 [15] = assay: Antitumor activity against mouse CT26 cells implanted in BALB/c mouse assessed as suppression of tumor growth at 5 mg/kg, IG administered on days 1,3, 5 and 8; type: functional, organism-based; conditions: time 8.0 day
[16] = test system: Stimulator of interferon genes protein (Homo sapiens), Q86WV6 [UNDEFINED MUTATION]; assay: Binding affinity to His-tagged wild type human STING R232 variant C-terminal domain (149 to 379 residues) expressed in Escherichia coli BL21 (DE3) cells incubated for 30 mins by thermal shift assay; conditions: filed as agonist
[17] = test system: Stimulator of interferon genes protein (Homo sapiens), Q86WV6 [UNDEFINED MUTATION]; assay: Binding affinity to human STING H232 variant incubated for 30 mins by thermal shift assay; conditions: filed as agonist
Homo sapiens = species: Homo sapiens; assay: Binding affinity to human STING G230A-R293Q variant incubated for 30 mins by thermal shift assay; conditions: filed as agonist
[18] = molecular target: T2, Stimulator of interferon genes protein (Mus musculus); assay: Binding affinity to mouse STING incubated for 30 mins by thermal shift assay; conditions: filed as agonist

Measured: Activity

CCn1nc(C)cc1C(=O)Nc1nc2cc(C(N)=O)cc(OC)c2n1CCCNc1ncc(-c2ccccc2C(F)(F)F)o1
active: [1] | [2] | [3] Dose-Dependent Effect | [4] Dose-Dependent Effect | [5] | [6] | [7] | [8] | [9] | [10] Dose-Dependent Effect | [11] Dose-Dependent Effect | [12] Dose-Dependent Effect | CT26 [13] | CT26 [14] | CT26 [15]

CCn1nc(C)cc1C(=O)Nc1nc2cc(C(N)=O)cc(OC)c2n1CCCNc1ncc(-c2ccccc2C)o1
active: [1] | [2] | [3] Dose-Dependent Effect | [4] Dose-Dependent Effect | [5] | [6] | [7] | [8] | [9] | [10] Dose-Dependent Effect | [11] Dose-Dependent Effect | [12] Dose-Dependent Effect

CCn1nc(C)cc1C(=O)Nc1nc2cc(C(N)=O)cc(OC)c2n1CCCNc1ncc(-c2ccccc2)o1
active: [16] | [17] | Homo sapiens | [18]
